Test results reported in ChEMBL document CHEMBL1212704, “Structural and biochemical evidence for a boat-like transition state in beta-mannosidases” (Nat Chem Biol, 2008).

Assay: Inhibition of wild type Bacteroides thetaiotaomicron beta-mannosidase 2A expressed in Escherichia coli BL21 (DE3) at 37 degC and Ph 5.6 by 2,4-dinitrophenolate release assay

OC[C@H]1C[C@H]2[C@@H](O)[C@@H](O)[C@@]1(O)CN2Cc1ccccc1
Ki: 13 µM
